Assay results: PubChem BioAssay AID2417 (National Center for Advancing Translational Sciences (NCATS), 2010)
The list shows a part of the results, in another mix than the full data. Results filed as inconclusive are left out. The source made the active and inactive calls.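 The calls were made as follows: active = readout at or below -70, meaning at least 70% loss of cells showing the perinucleolar compartment, a nuclear body marking cancer cells; inconclusive = readout between -30 and a set limit; inactive = the rest.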

experiment: High Content Assay for Compounds that inhibit the Assembly of the Perinucleolar Compartment; conditions: PC3M PTB-GFP, PNC prevalence imaging, 16 h; at 10 µM; active compounds read low
Description: High Content Assay for Compounds that inhibit the Assembly of the Perinucleolar Compartment NIH Chemical Genomics Center [NCGC] NIH Molecular Libraries Probe Centers Network [MLPCN] MLPCN Grant: MH082371-01A2 Assay Submitter (PI): Sui Huang, Northwestern University, Feinberg School of Medicine, Cell and Molecular Biology, Chicago, Illinois. The perinucleolar compartment (PNC) is a non-membrane-bound nuclear subdomain that is associated with but structurally distinct from the nucleolus. The PNC is a heritable trait, in which the number of PNCs per cell in daughter cells often mimics that of their mother cells. The PNC is heterogeneous in shape, is stable through interphase, disassembles during mitosis, and reassembles in early G1. The PNC is concentrated with newly synthesized RNA polymerase III (pol III) RNAs (MRP RNA, RNAse P H1 RNA, hY RNAs[hY1, 2, 5], Alu RNA, and SRP [7SL] RNA) and RNA binding proteins (nucleolin, PTB, CUG-BP, KSRP, Raver1, Raver2, and Rod). […] Extensive in vitro studies have shown that the PNC is unique to tumor cells and preferentially forms in tumor cells derived from solid tissues. Examination of cancer cell lines from various origins and malignant capacities has shown that PNC prevalence correlates with the malignancy of tumors and has the potential to be developed as a pan-cancer prognostic marker. […] Although the PNC is associated with a DNA locus and a handful of components have been identified, much remains to be investigated regarding the structure and function of the PNC and its mechanistic link to cancer. We have previously shown that PNC prevalence reduction is a valid strategy to identify compounds that can be used to study the structure and function of the PNC. It is necessary, however, to create a screening platform that is able to test a large number of compounds in an automated fashion. Here we report the development and robustness of an automated whole-cell phenotypic image-based screening assay that is capable of identifying such compounds.
PNC High Content Imaging Assay Procedure: 1. Cells at a density of 75-90% confluency in T175 flasks were harvested using 7 ml TrypLE Express cell dissociation reagent. After dissociation (5 minutes room temperature incubation) 10 ml of complete media was added to the TrypLE/cell suspension. The liquid was transferred to a 50 ml Conical tube and cells were pelleted at 1000 RPM for 5 min. Supernatant was removed and cells were resuspended to a final density of 150-200 cells/ul in complete media. 2. Cells were plated in 5 ul volume (750-1000 cells/well) into 1536 well Black uclear Aurora Low Base plates and allowed to recover and adhere at 37 C in a humidified 5% CO2 incubator for 4 hours. 3. After 4 hour incubation, compound libraries (23 nl of […] in columns 5-48) were transferred to the plates in duplicate using a 1536 well pintool. Camptothecin positive control (59 uM final) was added to column 2 and 1:3 dilutions of camptothecin was added to column 3. DMSO negative controls were present in columns 1 and 4. 4. After a 16 hour incubation in the 37 C incubator, cells were fixed by the addition of 4 ul of 6% EM grade paraformaldehyde (containing 0.1% triton X 100) directly to the cells. The plates were incubated at room temperature for 20 minutes. The liquid was removed using a 32 channel Kalypsys aspirator and the fixed cells were washed twice with 5 ul PBS followed by a final addition of 5 ul PBS containing 1 ug/ml Hoechst 33342. 5. Fixed plates were sealed and sotred at 4C until imaged. 6. Plates were imaged on an InCell 1000 automated microscope using a 20 x objective, a standard FITC filter set, no camera binning, and an exposure time of ~100-150 msec/well. 7. Data analysis. PNC prevalence was determined using the Multitarget analysis module from InCell Workstation software (V3.5 ) and analysis was run on a quad core workstation using the Incell Developer Toolbox (V1.7). […]

Structure (SMILES) | activity change (PNC), negative = inhibition
Cc1cc(SC(NC(=O)c2ccccc2)C(Cl)(Cl)Cl)nc(C(C)C)n1 (stereo unspecified) | inactive: -26.5%
O=C(COc1ccccc1)OC1CN2CCC1CC2 (stereo unspecified) | inactive: -8.79%
O=C(OC1CN2CCC1CC2)C12CC3CC(CC(C3)C1)C2 (stereo unspecified) | inactive: 6.46%
Cc1ccc2nc3c(c(C)c2c1)CC(C(Cl)Cl)S3 (stereo unspecified) | inactive: -6.59%
CCN(CC)C(=S)SC(NC=O)C(Cl)(Cl)Cl (stereo unspecified) | inactive: 15%
ClCCSc1nnc(-c2cccnc2)o1 | inactive: -28.8%
CCOP1(=S)c2c(C)nn(CCC#N)c2N=C(c2ccccc2F)N1C (stereo unspecified) | inactive: -6.28%
O=[N+]([O-])c1ccc2c(c1)nnn2O | inactive: -1.67%
Cc1cccc(OCC(=O)OC2CN3CCC2CC3)c1 (stereo unspecified) | inactive: -3.26%
COc1cc(C2NCCC3(OCCO3)C2(C)C)cc(OC)c1OC (stereo unspecified) | inactive: 4.48%
Clc1n[nH]nc1-c1nn[nH][15n]1 | inactive: -14.4%
O=P1(Nc2ccccn2)COc2ccccc2OC1 | inactive: 8.01%
O=P1(Nc2ccc(Br)cn2)COc2ccccc2OC1 | inactive: -14.2%
Cc1ccc(OCC(=O)OC2CN3CCC2CC3)cc1 (stereo unspecified) | inactive: 9.41%
O=P1(Nc2ncccn2)COc2ccccc2OC1 | inactive: -27.2%
O=C(OC1CN2CCC1CC2)c1cccc(Cl)c1 (stereo unspecified) | inactive: 31.8%
c1nnnn1CCn1cnnn1 | inactive: -6.17%
CC(C)C(=O)NC(Sc1ccccc1)C(Cl)(Cl)Cl (stereo unspecified) | inactive: -10.3%

Structure (SMILES) | activity change (PNC), negative = inhibition
O=P(Nc1nccs1)(c1ccccc1)c1ccccc1 | inactive: 10.8%
O=P1(Nc2nc3ccc(Cl)cc3s2)COc2ccccc2O1 (stereo unspecified) | active: -107%
CCOC(=O)NC(Sc1ccccc1)C(Cl)(Cl)Cl (stereo unspecified) | inactive: -2.09%
CC(=O)NC(SC(=S)N(CC(C)C)CC(C)C)C(Cl)(Cl)Cl (stereo unspecified) | inactive: 9.45%
COC(=O)c1cc2c(s1)N=C(c1ccccc1)N(C)P2(=O)N1CCOCC1 (stereo unspecified) | inactive: 39.4%
CCOP(=O)(Nc1ccccc1)OCC | inactive: 19.1%
Cc1cc(SC(NC(=O)c2ccc(F)cc2)C(Cl)(Cl)Cl)ncn1 (stereo unspecified) | inactive: 2.97%
CCN(N=Nc1nonc1N)c1nonc1N | inactive: 9.18%
CN1CCCC(OC(=O)C(c2ccccc2)c2ccccc2)C1 (stereo unspecified) | active: -109%
Cc1c2non([O-])c-2c(C)[n+](=O)[n+]1[O-] | active: -88.2%
O=C(NC(Sc1ccncn1)C(Cl)(Cl)Cl)c1ccccc1 (stereo unspecified) | inactive: -13.5%
Oc1ccccc1CNc1ccccn1 | inactive: 0.776%
CC(C)CC(=O)NC(Sc1ccc(Cl)cc1)C(Cl)(Cl)Cl (stereo unspecified) | inactive: -9%
CCc1nc2c(n1)c1c(non1O)c1c2no[n+]1[O-] | inactive: -3.64%
O=[N+]([O-])c1cccc2n[nH]nc12 | inactive: 2.34%
CC(=O)N1C2C3N(C(C)=O)C1C1N(C(C)=O)C(C(N1C(C)=O)N3C(C)=O)N2C(C)=O | inactive: 67.9%
CC1CCN(C(=O)Oc2c(Cl)cc(Cl)c3cccnc23)CC1 | inactive: 22.4%
CN(C)C(=O)OCCc1n(C)cc[n+]1C | inactive: 46.8%
